Where two headings read alike, the source gives them in different places.
How the values were obtained:
[1] = test system: human colon cancer cell line SW620; details: for Tumor Volume: A01S 420 mg/kg iv QW × 4
[2] = test system: human ovarian cancer cell line SKOV-3; details: A01S 450 mg/kg iv QW × 4
Source text: SKOV-3 tumor masses were subcutaneously inoculated to 80 BALB/c nude mice.

[3] = test system: human triple-negative breast cancer cell line MDA-MB-231; assay: In vivo pharmacodynamic study on MDA-MB-231 tumor (Example 24); details: A01S 240 mg/kg iv QW × 3
Procedure: One week after the last administration, tumors were taken from all the mice and weighed.
The clinical symptoms observed during the experiment were recorded in the raw data. Tumor volume was calculated by the following formula: […]
Relative tumor proliferation rate (T/C (%)) represents a ratio in percentage of relative tumor volumes or tumor weights of a treatment group and a control group at a time point, which was calculated by the following formula: […]
Relative tumor inhibition rate (TGI (%)) was calculated by the following formula: […]

[4] = test system: human colon cancer cell line HCT116; details: A01S 450 mg/kg iv QW × 4
Source text: One week after the last dose, tumors were taken from all mice, weighed, and photographed.

A01S: human serum albumin (Guang Dong Shuang Lin Bio-Pharmacy) used as negative control [Example A01S]
Tumor Volume (mm^3) D 13 ([1]; 420 mg/kg, D 13): 130 ± 17 mm^3 | RTV (D 41) ([1]; 420 mg/kg, D 41): 18.75 ± 2.38 | T/C (%) RTV ([1]; 420 mg/kg, D 41): 114% | T/C (%) TW ([1]; 420 mg/kg, D 41): 119% | Tumor Volume (mm^3) D 41 ([1]; 420 mg/kg, D 41): 2364 ± 331 mm^3 | Tumor Weight (mg) (D 41) ([1]; 420 mg/kg, D 41): 2089 ± 304 mg | Tumor Volume ([1]; D13): 130 ± 17 mm^3 | Tumor Volume ([1]; D16): 227 ± 34 mm^3 | Tumor Volume ([1]; D20): 377 ± 49 mm^3 | Tumor Volume ([1]; D23): 578 ± 78 mm^3 | Tumor Volume ([1]; D27): 892 ± 132 mm^3 | Tumor Volume ([1]; D30): 1129 ± 170 mm^3 | Tumor Volume ([1]; D34): 1434 ± 210 mm^3 | Tumor Volume ([1]; D37): 1772 ± 262 mm^3 | Tumor Volume ([1]; D41): 2364 ± 331 mm^3 | T/C (%) RTV [2]: 130% | T/C (%) TW [2]: 149% | Tumor Volume ([2]; D14): 163 ± 17 mm^3 | Tumor Volume ([2]; D21): 458 ± 58 mm^3 | Tumor Volume ([2]; D25): 708 ± 89 mm^3 | Tumor Volume ([2]; D28): 857 ± 91 mm^3 | Tumor Volume ([2]; D32): 1199 ± 149 mm^3 | Tumor Volume ([2]; D35): 1607 ± 249 mm^3 | Tumor Volume ([2]; D39): 2206 ± 360 mm^3 | RTV ([2]; D 42): 18.75 ± 3.69 | Tumor Volume ([2]; D 42): 2933 ± 513 mm^3 | Tumor Weight ([2]; D 42): 2611 ± 477 mg | T/C (%) RTV [3]: 109% | T/C (%) TW [3]: 98% | Tumor Volume ([3]; D16): 145 ± 27 mm^3 | RTV ([3]; D33): 20.67 ± 2.65 | Tumor Volume ([3]; D33): 2811 ± 432 mm^3 | Tumor Weight ([3]; D33): 2399 ± 304 mg | T/C (%) RTV [4]: 89% | T/C (%) TW [4]: 68% | Tumor Volume ([4]; D15): 117 ± 14 mm^3 | Tumor Volume ([4]; D19): 184 ± 23 mm^3 | Tumor Volume ([4]; D22): 244 ± 36 mm^3 | Tumor Volume ([4]; D26): 403 ± 37 mm^3 | Tumor Volume ([4]; D29): 521 ± 28 mm^3 | Tumor Volume ([4]; D33): 723 ± 41 mm^3 | Tumor Volume ([4]; D36): 794 ± 54 mm^3 | Tumor Volume ([4]; D40): 863 ± 57 mm^3 | RTV ([4]; D 43): 11.22 ± 1.87 | Tumor Volume ([4]; D 43): 1176 ± 77 mm^3 | Tumor Weight ([4]; D 43): 982 ± 78 mg

— patent US12370187B2, “Composition containing antitumor drug, and preparation method thereof and use thereof” (KUNSHAN XINYUNDA BIOTECH CO., LTD., priority 2021, dated 2025)
